Assay results from patent publication US11319304B2, “Pyridine quinoline compounds as MGLUR4 allosteric potentiators, compositions, and methods of treating neurological dysfunction” (Vanderbilt University, priority 2017, dated 2022).

The chains behind the UniProt entries cited, without tags or fusion partners. Residues count along the entry.
UniProt Q14833, 33-912 limits assumed: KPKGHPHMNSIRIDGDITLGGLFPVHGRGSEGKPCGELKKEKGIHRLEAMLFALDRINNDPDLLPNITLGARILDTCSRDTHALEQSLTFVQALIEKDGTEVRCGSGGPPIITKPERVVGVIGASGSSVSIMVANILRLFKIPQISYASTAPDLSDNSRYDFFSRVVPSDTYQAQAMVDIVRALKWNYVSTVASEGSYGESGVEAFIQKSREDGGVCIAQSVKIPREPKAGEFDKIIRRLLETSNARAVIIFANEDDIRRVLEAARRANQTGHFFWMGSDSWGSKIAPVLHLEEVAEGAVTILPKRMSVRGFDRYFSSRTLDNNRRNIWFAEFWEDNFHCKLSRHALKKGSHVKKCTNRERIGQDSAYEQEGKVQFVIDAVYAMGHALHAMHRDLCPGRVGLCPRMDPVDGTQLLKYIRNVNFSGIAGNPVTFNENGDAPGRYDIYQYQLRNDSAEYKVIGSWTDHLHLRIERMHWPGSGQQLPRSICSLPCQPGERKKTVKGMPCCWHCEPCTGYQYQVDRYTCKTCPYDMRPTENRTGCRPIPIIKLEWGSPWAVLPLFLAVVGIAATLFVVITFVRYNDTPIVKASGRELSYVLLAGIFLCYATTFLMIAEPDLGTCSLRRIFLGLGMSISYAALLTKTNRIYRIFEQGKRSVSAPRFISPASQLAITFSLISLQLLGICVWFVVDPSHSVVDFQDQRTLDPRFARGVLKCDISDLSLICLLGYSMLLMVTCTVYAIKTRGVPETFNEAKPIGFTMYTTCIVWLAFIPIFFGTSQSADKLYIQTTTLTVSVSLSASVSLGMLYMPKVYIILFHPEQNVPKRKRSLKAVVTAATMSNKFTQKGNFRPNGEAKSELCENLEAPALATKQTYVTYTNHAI

Biological target: mGluR4 (Homo sapiens, UniProt Q14833)
Test: mGlu4 PAM potentiation assay, CHO cells transfected with human mGluR4, Ca2+-sensitive dye fluorescence
Format: cell-based
Settings: read-out: mGlu4 PAM EC50
Procedure: The disclosed compounds and compositions can be evaluated for their ability to act as a potentiator of metabotropic glutamate receptor activity, in particular mGluR4 activity, by any suitable known methodology known in the art. For example, Chinese Hamster Ovary (CHO) cells transfected with human mGluR4 or HEK cells co-transfected with rat mGluR4 and the G-protein regulated Inwardly Rectifying Potassium channel (GIRK) were plated in clear bottom, assay plates for assay in a Hamamatsu FDSS Fluorometric Plate Reader. The cells were loaded with either a Ca2+-sensitive fluorescent dye or the thallium responsive dye and the plates were washed and placed into a suitable kinetic plate reader. For human mGluR4 assays, a fluorescence baseline was established for 3-5 seconds, the disclosed compounds were then added to the cells, and the response in cells was measured. Approximately two and a half minutes later, a concentration of mGluR4 orthosteric agonist (e.g. glutamate, L-AP4, or L-SOP) eliciting approximately 20% (EC20) of the maximal agonist response was added to the cells, and the response was measured. Two minutes later, a concentration of mGluR4 agonist (e.g. glutamate, L-AP4, or L-SOP) eliciting 80% (EC80) of the maximal agonist response was added to the cells, and the response was measured. […]

SMILES | EC50 [nM]
CC1(C)CC(COc2nccc3cc(NC(=O)c4ncccc4O)ccc23)CO1 (centres unmarked) | 457
O=C(Nc1ccc2c(OCC3CCOC3)ncc(F)c2c1)c1ncccc1O (centres unmarked) | 158
